Test results: ChEMBL document CHEMBL3774335, “Tactical Approaches to Interconverting GPCR Agonists and Antagonists” (J Med Chem, 2016)

By UniProt entry, the sequences of proteins in these tests, tags left out.
UniProt P41146, whole entry: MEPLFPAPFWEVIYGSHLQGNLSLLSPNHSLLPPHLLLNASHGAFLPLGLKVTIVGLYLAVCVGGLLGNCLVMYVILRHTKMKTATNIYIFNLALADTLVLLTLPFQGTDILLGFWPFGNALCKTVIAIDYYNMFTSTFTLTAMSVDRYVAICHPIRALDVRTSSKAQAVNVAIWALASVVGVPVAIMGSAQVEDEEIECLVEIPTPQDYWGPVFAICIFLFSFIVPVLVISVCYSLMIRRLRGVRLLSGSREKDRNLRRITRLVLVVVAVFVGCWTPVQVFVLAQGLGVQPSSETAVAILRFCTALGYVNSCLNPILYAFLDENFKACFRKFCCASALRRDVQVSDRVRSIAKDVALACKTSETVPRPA

Molecular target: Nociceptin receptor (Homo sapiens) (UniProt P41146)
Experiment: Partial agonist activity at human nociceptin receptor expressed in CHO cells after 60 mins by [35S]GTPgammaS binding assay

Which %max does the source give for `O=C1Cc2ccccc2N1C1CCN(Cc2ccccc2)CC1` here?
The %max was 18%.
